Assay results taken from patent US20090030039A1, “Piperidine Derivatives as Cxcr3 Receptor Antagonists” (priority 2006, published 2009).

By UniProt entry, the sequences of proteins in these tests, tags left out.
UniProt P49682, whole entry: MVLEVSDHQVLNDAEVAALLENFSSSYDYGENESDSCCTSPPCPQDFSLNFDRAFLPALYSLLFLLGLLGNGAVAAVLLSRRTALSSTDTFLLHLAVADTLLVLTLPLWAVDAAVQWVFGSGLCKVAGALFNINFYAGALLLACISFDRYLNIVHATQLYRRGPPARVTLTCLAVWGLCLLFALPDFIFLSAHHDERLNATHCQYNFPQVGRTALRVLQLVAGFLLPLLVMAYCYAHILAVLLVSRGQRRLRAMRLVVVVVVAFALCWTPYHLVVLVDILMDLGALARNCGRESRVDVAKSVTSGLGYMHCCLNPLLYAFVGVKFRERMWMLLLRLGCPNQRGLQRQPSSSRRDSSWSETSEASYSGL

These compounds were tested against human CXCR3 (Homo sapiens, UniProt P49682) (assay: [35S]GTPγS exchange assay, CXCR3 receptor inhibition (hI-TAC-induced GTPγS-binding)). Conditions: -log IC50 (molar) inhibiting 50% of specific I-TAC-induced GTPγS-binding; membranes of human CXCR3-transfected CHO cells.

Structure (SMILES) | pIC50
O=C1CCC(c2ccc(F)cc2)(C2CCN(Cc3cc4cc(Br)ccc4o3)CC2)CN1 (racemic) | 5.5
O=C1CCC(c2ccncc2)(C2CCN(Cc3ccc(Br)cc3F)CC2)C(=O)N1 (racemic) | 5.7
O=C1CCC(c2ccncc2)(C2CCN(Cc3ccc(Cl)c(C(F)(F)F)c3)CC2)C(=O)N1 (racemic) | 5.4
O=C1CCC(c2ccncc2)(C2CCN(Cc3ccc(Cl)cc3Cl)CC2)C(=O)N1 (racemic) | 5.8
O=C1CCC(c2ccncc2)(C2CCN(Cc3ccc(F)c(Cl)c3)CC2)C(=O)N1 (racemic) | 5.4
O=C1CCC(c2ccncc2)(C2CCN(Cc3ccc(OC(F)(F)F)cc3)CC2)C(=O)N1 (racemic) | 5.7
